We go through three molecules from patent US20230303495A9, “PYRIDINE OXYNITRIDE, PREPARATION METHOD THEREFOR AND USE THEREOF” (Orion Corporation, priority 2019, published 2023).

The chains behind the UniProt entries cited, without tags or fusion partners.
UniProt Q9Y5Y9, whole entry: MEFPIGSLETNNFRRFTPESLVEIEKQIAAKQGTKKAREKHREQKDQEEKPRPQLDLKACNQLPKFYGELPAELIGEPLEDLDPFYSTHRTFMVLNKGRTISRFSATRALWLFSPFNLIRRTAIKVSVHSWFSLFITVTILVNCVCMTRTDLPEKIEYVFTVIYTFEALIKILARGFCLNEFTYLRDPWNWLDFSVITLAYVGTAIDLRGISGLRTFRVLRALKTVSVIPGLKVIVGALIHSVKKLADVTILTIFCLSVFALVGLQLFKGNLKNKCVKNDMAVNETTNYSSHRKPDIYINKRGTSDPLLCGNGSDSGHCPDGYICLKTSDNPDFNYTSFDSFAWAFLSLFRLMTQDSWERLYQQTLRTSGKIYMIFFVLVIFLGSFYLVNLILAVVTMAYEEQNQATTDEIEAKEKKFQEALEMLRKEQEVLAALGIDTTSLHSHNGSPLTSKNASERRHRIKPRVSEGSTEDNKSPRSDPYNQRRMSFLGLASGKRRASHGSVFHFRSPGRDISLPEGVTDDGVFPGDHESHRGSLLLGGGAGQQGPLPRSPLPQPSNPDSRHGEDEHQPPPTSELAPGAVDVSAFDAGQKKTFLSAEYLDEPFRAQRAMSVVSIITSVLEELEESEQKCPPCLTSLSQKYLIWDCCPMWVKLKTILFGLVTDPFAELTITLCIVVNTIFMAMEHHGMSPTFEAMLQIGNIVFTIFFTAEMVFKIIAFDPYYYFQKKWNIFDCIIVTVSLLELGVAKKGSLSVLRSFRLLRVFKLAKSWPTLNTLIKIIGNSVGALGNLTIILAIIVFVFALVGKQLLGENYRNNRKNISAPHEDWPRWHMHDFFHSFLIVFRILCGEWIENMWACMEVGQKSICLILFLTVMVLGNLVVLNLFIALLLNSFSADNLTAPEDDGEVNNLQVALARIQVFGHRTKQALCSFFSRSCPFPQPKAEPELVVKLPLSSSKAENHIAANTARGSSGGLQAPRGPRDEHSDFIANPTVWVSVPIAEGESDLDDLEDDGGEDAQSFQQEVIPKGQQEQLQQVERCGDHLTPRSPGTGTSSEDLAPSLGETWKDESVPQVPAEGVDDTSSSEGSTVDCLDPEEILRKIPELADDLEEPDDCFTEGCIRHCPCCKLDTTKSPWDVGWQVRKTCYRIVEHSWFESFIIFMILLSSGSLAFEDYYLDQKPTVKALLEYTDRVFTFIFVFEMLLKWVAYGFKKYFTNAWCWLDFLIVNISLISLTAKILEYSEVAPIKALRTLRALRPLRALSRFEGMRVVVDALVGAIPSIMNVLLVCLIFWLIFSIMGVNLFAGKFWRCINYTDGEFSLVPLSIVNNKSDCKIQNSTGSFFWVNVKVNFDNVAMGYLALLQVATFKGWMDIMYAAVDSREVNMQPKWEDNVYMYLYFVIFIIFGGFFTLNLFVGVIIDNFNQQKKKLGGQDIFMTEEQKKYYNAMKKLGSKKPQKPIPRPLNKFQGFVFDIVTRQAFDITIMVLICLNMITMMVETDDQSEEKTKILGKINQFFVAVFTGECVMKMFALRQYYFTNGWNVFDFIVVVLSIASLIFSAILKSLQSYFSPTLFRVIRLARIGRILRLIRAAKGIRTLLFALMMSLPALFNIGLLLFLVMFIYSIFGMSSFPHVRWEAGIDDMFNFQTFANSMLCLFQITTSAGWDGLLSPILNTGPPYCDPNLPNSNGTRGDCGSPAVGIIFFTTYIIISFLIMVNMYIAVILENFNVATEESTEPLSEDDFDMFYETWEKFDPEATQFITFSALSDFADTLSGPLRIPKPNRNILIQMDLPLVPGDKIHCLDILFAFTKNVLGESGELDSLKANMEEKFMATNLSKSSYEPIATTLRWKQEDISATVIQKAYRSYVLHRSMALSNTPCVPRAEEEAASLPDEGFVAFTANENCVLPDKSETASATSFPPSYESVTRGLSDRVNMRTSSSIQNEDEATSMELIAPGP

The target in one data set is NaV1.8 (Homo sapiens, UniProt Q9Y5Y9). Kind of data set: Whole-cell patch clamp blocking activity against NaV1.8 channel current. To be noted: read-out: NaV1.8 IC50, CHO cell line stably expressing Nav1.8 (SCN10A: NM_006514). As for the experimental part:
1. Test method: patch clamp technique was used to detect the influence of compounds on voltage-gated sodium channel (NaV) 1.1-1.8 subtype current
1) The specific information of the CHO cell line stably expressing the Nav1.8 channel was as follows: SCN10A: NM_006514
2) Cells were cultured in HAM'S/F-12 medium containing 10% fetal bovine serum and 10 μg/mL Blasticidin, 200 μg/mL Hygromycin B and 100 μg/mL Zeocin, culture temperature was 37° C. and the concentration of CO2 was 5%.
5) Patch clamp detection, before the experiment, the cells were separated with 0.25%—trypsin EDTA, inoculated into a 24 well plate with a density of 8*10^3 cells per well (final volume: 500 μL), tetracycline was added thereto, and experimental test was performed on the next day.
1) Extracellular fluid: 140 mM NaCl, 3.5 mM KCl, 2 mM CaCl2, 10 mM HEPES, 1.25 mM NaH2PO4, 1 mM MgCl2, 10 mM Glucose, pH=7.4 (NaOH).
2) Intracellular fluid: 50 mM CsCl, 10 mM NaCl, 10 mM HEPES, 20 mM EGTA, 60 mM CsF, pH=7.2 (CsOH).
The voltage stimulation scheme of whole-cell patch clamp recording of Nav channel current was as follows: first the membrane potential of the cell was clamped at −130 mV, and then the voltage was stepped to −40 mV or −20 mV at 10 mv step intervals for 8 s. […] The peak amplitude of its inward current was measured to determine its half-inactivation voltage.
The cell clamping potential was set at −120 mV. The resting and half-inactivation inhibition of sodium current was measured using double pulse mode. […] The data acquisition was repeated at an interval of 20 s and the current peak was measured at the two test pulses.
When the current of the Nav channel recorded by the whole cell was stable, the drug was administered, after each drug concentration was applied for 5 minutes (or the current was stable), the next concentration would be tested, and multiple concentrations would be tested for each test compound. […] The current detected in each cell in the compound-free external fluid served as its own control group. Multiple cells were detected independently and repeatedly. […]
(In general: Patch clamp records ionic current or voltage across a cell membrane.)

Data set [1] in a line: In vivo pharmacokinetics of rat, single intravenous injection or oral administration by gavage. Here is the method:
In this experimental embodiment, the in vivo pharmacokinetics of rat was evaluated by a single intravenous injection or oral administration by gavage.
Experimental methods and conditions: Male Sprague Dawley rats, all animals were fasted overnight, and the test compound was given 1 mg/Kg (intravenous injection, solvent […]) and 10 mg/Kg (administrated by gavage) respectively, 5, 15, 30 min, 1, 2, 4, 6, 8 and 24 hr after administration, blood was collected through the submandibular vein, about 0.20 mL of each sample was collected, heparin sodium was used for anticoagulation, the samples were placed on ice after the collection, then centrifuged within 1 hour to separate the plasma for testing. The blood drug concentration in plasma was detected by liquid-phase tandem mass spectrometry (LC/MS/MS), and the pharmacokinetic parameters were calculated by the measured concentration.

Where [2] appears, read: intravenous administration 1 mg/kg.

As a reminder, the IC50 is the concentration needed to halve the response being measured. In general, Cmax refers to the maximum level reached in the sampled fluid or tissue.

In the case of `O=C(Nc1ccc[n+]([O-])c1)c1c(Oc2ccc(OC(F)(F)F)c(F)c2)ccc(C(F)(F)F)c1F`, the IC50 at NaV1.8 was found to be 3 nM.

As for `O=C(Nc1ccc[n+]([O-])c1)c1cc(C(F)(F)F)c(Cl)cc1Oc1ccc(OC(F)(F)F)cc1`, the IC50 on NaV1.8 came out at 6.7 nM. In addition, in data set [1] (intragastric (gavage) 10 mg/kg), the “AUCinf” value turned out to be 12373.07 ng·h/mL, the “Cmax” value was 3543.33 ng/mL and the “T1/2” value was 1.61 h. The “F (%)” value in data set [1] (intragastric (gavage) 10 mg/kg vs intravenous 1 mg/kg) is listed as 51.54%. In addition, in data set [1] (setting [2]), the “AUCinf” value came out at 2400.69 ng·h/mL, the “CL” value was 7.61 mL/min/kg, the “T1/2” value came out at 0.67 h and the “VZ” value amounted to 0.44148 L/kg.

Take `COc1cc(OC(F)(F)F)ccc1Oc1ccc(C(F)(F)F)c(F)c1C(=O)Nc1ccc[n+]([O-])c1`: on NaV1.8, the IC50 turned out to be 1.3 nM.
